The source of these data is ChEMBL document CHEMBL1131420, “Synthesis and biological properties of new 2beta-alkyl- and 2beta-aryl-3-(substituted phenyl)tropane derivatives: stereochemical effect of C-3 on affinity and selectivity for neuronal dopamine and serotonin transporters” (J Med Chem, 1998).

Amino acid sequences for entries named in this document (tags omitted).
UniProt P31652, whole entry: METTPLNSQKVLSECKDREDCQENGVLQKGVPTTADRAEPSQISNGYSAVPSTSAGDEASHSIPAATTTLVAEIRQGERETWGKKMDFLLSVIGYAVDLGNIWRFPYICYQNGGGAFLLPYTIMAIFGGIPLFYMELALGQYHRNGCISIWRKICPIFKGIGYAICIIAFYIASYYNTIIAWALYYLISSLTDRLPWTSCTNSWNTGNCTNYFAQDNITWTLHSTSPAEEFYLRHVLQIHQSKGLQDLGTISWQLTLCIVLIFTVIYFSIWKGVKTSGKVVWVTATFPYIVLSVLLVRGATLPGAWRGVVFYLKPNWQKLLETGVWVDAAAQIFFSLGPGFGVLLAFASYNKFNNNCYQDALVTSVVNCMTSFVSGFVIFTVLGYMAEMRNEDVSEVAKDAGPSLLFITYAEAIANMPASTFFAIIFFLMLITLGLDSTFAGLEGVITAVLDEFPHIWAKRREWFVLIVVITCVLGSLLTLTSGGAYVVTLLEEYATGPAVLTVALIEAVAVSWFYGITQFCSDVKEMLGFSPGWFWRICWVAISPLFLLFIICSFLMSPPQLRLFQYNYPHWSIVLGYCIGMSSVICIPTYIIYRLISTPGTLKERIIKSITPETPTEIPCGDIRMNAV

pIC50, pKi: −log10 of the molar value.

The target of assay [1] is T1, Sodium-dependent serotonin transporter (Rattus norvegicus, UniProt P31652). In words: Binding affinity for Serotonin transporter was determined by [3H]5-HT (serotonin) uptake by striated synaptosomes. The assay is classed as subcellular, Brain.
For assay [2], the target named is T1, Sodium-dependent serotonin transporter. The assay is described as follows: Inhibitory activity against Serotonin transporter was determined for [3H]5-HT (serotonin) uptake by striated synaptosomes. The assay is classed as subcellular, Brain.
The target is the same in assay [3]. The assay is described as follows: Binding affinity on dopamine and serotonin transporters in striated membranes using [3H]- paroxetine. The assay is classed as cell membranes.
The target is the same in assay [4]. The assay is described as follows: Inhibitory activity on dopamine and serotonin transporters in striated membranes using [3H]- paroxetine. Type of assay: cell membranes.

`COC(=O)[C@@H]1C2CC[C@@H](C[C@@H]1OC(=O)c1ccccc1)N2C` (single isomer, unassigned) [COCAINE] gave a pKi in assay [1] of 6.81.
For `COC(=O)[C@H]1C(c2ccccc2)C[C@H]2CCC1N2C` (stereo not given in full), the pIC50 is 6.69 in assay [2] and 5.57 in assay [4]. Further, the pKi was 6.73 in assay [1] and 6.87 in assay [3].
